The text below walks through data of ChEMBL document CHEMBL1155287, “Discovery of a small molecule inhibitor through interference with the gp120-CD4 interaction” (Bioorg Med Chem Lett, 2009).

The structures appear in SMILES notation.

The data set can be described thus: Clearance in rat at 1 mg/kg, iv and 1 mg/kg, po. Type of data set: ADME, organism-based. As to conditions: in vivo.

In the case of `CNC(=O)c1cc(OC)c(O[C@@H](C)C(=O)N2CCN(C(=O)c3ccccc3)C[C@H]2C)cn1` (mixture of isomers), the clearance was found to be 18 mL/min/kg.
